Assay results published in BindingDB's records for doi:10.1016/j.ejmech.2016.08.061 (South China University of Technology, 2017).

The chains behind the UniProt entries cited, without tags or fusion partners.
UniProt P06276, whole entry: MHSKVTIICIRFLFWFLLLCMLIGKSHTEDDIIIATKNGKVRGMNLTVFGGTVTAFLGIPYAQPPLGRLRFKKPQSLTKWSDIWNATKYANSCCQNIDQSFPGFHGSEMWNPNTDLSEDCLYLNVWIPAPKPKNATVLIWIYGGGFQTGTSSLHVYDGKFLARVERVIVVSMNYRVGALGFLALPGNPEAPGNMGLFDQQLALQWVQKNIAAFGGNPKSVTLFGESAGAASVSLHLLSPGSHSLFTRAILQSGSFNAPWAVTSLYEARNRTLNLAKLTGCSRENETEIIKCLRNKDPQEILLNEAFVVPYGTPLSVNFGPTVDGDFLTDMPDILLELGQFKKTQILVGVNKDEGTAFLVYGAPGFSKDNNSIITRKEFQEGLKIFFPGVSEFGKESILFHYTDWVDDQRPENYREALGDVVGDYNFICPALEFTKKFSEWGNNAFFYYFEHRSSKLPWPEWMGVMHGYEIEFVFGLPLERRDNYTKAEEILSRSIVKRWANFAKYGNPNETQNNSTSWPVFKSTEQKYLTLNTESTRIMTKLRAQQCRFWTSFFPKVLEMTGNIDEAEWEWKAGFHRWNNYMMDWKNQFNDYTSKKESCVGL
UniProt P81908, whole entry: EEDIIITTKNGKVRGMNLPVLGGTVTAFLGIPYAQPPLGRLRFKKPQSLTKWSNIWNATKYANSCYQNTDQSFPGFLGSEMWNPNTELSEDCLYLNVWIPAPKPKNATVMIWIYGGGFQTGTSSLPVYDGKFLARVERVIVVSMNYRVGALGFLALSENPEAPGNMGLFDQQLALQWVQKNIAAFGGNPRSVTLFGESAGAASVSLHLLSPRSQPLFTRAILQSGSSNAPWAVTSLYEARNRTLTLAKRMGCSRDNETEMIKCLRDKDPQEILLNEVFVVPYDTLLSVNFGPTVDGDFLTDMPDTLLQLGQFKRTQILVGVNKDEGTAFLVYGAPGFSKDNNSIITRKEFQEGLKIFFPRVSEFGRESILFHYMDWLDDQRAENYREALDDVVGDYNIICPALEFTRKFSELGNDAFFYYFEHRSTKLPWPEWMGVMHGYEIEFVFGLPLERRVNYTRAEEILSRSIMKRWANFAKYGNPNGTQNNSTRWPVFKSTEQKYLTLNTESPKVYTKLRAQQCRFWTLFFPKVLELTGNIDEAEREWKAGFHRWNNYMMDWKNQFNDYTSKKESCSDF

Key:
[1] = molecular target: Cholinesterase (Homo sapiens, UniProt P06276); test: Irreversible inhibition of human plasma BuChE assessed as second order carbamylation rate constant using S-butyrylthiocholine iodide as substrate preincubated up to 45 mins followed by substrate addition measured after 5 mins; details: read-out: kon (M-1-s-1)
Method in brief: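 Diluted human plasma BChE was preincubated for 1–45 min with inhibitor at 5×10^-9, 1×10^-8, 2.5×10^-8 and 5×10^-8 M. Residual Ellman activity with BTCh at pH 8 was normalised to a water control. kobs came from a one-phase exponential fit; k_I1 came from the slope of kobs versus concentration.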

[2] = molecular target: Cholinesterase (Equus caballus, UniProt P81908); test: Irreversible inhibition of equine serum BuChE assessed as second order carbamylation rate constant using S-butyrylthiocholine iodide as substrate preincubated up to 45 mins followed by substrate addition measured after 5 mins; details: read-out: kon (M-1-s-1)
Method in brief: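 Equine BChE, pH 8, 37°C, was preincubated for 1, 2, 4, 8, 15, 30 and 45 min with inhibitor at 1×10^-7 to 5×10^-6 M (seven levels). Residual activity was read by Ellman with BTCh and normalised to a water control at each time. kobs came from a one-phase exponential decay fit; k_I1 came from the linear kobs versus concentration relation.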

Q: Which results are given for `CN(C)C(=O)Oc1cc(OC(=O)N(C)C)cc(C(O)CNC(C)(C)C)c1` (configuration not stated) [CHEBI:553827]?
A: kon [1]: 130000 M⁻¹ s⁻¹; kon [2]: 2400 M⁻¹ s⁻¹
